Here are results for 56 compounds from PubChem BioAssay AID492956 (The Scripps Research Institute Molecular Screening Center, 2010).

This is a selection; strong and weak results do not stand in their true shares. Some structures show a salt or complex split into parts, the way the source records it. Activity calls are given as the source filed them.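 The calls were made as follows: active = inhibition above the mean over all tested compounds plus 3 SD (cut at about 30% in these data); inactive = the rest.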

In the experiment the target is Platelet-activating factor acetylhydrolase 2, cytoplasmic (Homo sapiens) (UniProt Q99487). The experiment can be described thus: PAFAH2 enzyme inhibitors, primary screen, biochemical, fluorescence polarization, human (AID 492956).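 Also: inhibitors block probe labeling of enzyme so polarization drops; 0% = enzyme with DMSO and 100% = wells lacking PAFAH2 protein.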 The following applies: recombinant PAFAH2, FP-rhodamine activity probe, at 3.39 µM, stronger effect = higher value.
On to `CCN(CC)CCCOC(=O)C(O)(c1ccccc1)c1ccccc1`, for which the inhibition is inactive: 5.19%.

Consider `O=[N+]([O-])c1ccc2c(c1)C=Nc1ccccc1O2`, for which the inhibition is inactive: 0.79%. As for `Cc1cccc(C)c1OP(C)(N)=O` (stereo unspecified), the inhibition was inactive: -0.3%.

As for `CC(C)(C)c1ccc(OP(C)(=O)Nc2ccc(SC(F)(F)F)cc2)cc1` (stereo unspecified), the inhibition is inactive: -14.8%.

Take `O=[N+]([O-])c1cc([N+](=O)[O-])c(Nc2cccnc2)c([N+](=O)[O-])c1`: the inhibition is inactive: -3.5%.

In the case of `Cc1cc(C)cc(OP(C)(N)=O)c1` (stereo unspecified), the inhibition is inactive: -5.09%. Consider `COc1ccc(OP(C)(=O)Nc2cccc(F)c2)cc1` (stereo unspecified), for which the inhibition is inactive: -3.59%.

Regarding `COc1ccccc1OP(C)(=O)Nc1cc(Cl)ccc1C` (stereo unspecified), the inhibition is inactive: 0.14%. On to `Cc1ccc(NP(C)(=O)Oc2ccccc2)c(C)c1` (stereo unspecified), for which the inhibition is inactive: -2.13%. Turning to `COc1ccccc1OP(C)(=O)Nc1ccc(C)cc1` (stereo unspecified), the inhibition was inactive: 2.5%. For `CCOC(=O)c1ccc(NP(C)(=O)Oc2ccccc2)cc1` (stereo unspecified) the value was inactive: -3.71%; for `CP(=O)(Nc1ccccc1Br)Oc1ccccc1` (stereo unspecified), inactive: -2.13%.

Take `COc1ccccc1OP(C)(=O)Nc1ccccc1` (stereo unspecified): the inhibition was inactive: 3.76%. On to `CP(=S)(Nn1cnnc1)Oc1ccccc1` (stereo unspecified), for which the inhibition was inactive: -4.06%. For `Cc1cc(C)cc(OP(C)(=O)Nc2ccc(SC(F)(F)F)cc2)c1` (stereo unspecified) the value was inactive: 4.84%. As for `CCc1ccc(OP(C)(=O)N2CCN(c3ccc([N+](=O)[O-])cc3)CC2)cc1` (stereo unspecified), the inhibition is inactive: -0.1%. On to `CP(=O)(NC(=O)Nc1ccccc1)Oc1ccccc1` (stereo unspecified), for which the inhibition was inactive: -1.67%. For the compound `CP(=O)(Oc1ccccc1)OC(c1ccccc1)C(F)(F)F` (stereo unspecified), the inhibition is inactive: 18.8%.

For `Cc1cccc(C)c1OP(C)(=O)Nc1ccc(SC(F)(F)F)cc1` (stereo unspecified), the inhibition was inactive: 4.01%.

Consider `CP(=O)(Nc1ccccn1)Oc1ccc(Cl)cc1` (stereo unspecified), for which the inhibition is inactive: 3.07%. With `CCOC(=O)c1ccc(NP(C)(=O)Oc2ccc(OC)cc2)cc1` (stereo unspecified), the inhibition is inactive: 2.86%. For `CCOP(C)(=S)SCC(=O)NC(C)C(=O)O` (stereo unspecified) the value was inactive: -0.23%. As for `O=[N+]([O-])c1cc([N+](=O)[O-])c(-n2nnc3ccccc32)c([N+](=O)[O-])c1`, the inhibition is inactive: -12.7%. In the case of `Cc1nc2ccc3ccccc3c2s1.O=[N+]([O-])c1cc([N+](=O)[O-])c(O)c([N+](=O)[O-])c1`, the inhibition is inactive: -8.77%. In the case of `O=[N+]([O-])c1cc([N+](=O)[O-])c(-c2cnn(-c3ccccc3)c2)c([N+](=O)[O-])c1` it was inactive: -5.04%; in that of `CCOC(=O)C(CC)C1=NC(C)(C)Cc2ccccc21.O=[N+]([O-])c1cc([N+](=O)[O-])c(O)c([N+](=O)[O-])c1` (stereo unspecified), inactive: -1.23%; in that of `O=[N+]([O-])c1cc([N+](=O)[O-])c(Nc2nnnn2CCO)c([N+](=O)[O-])c1`, inactive: -6%.

With `CC1=C2N=C(C=C3N=C(C(C)=C4[N-][C@@](C)([C@@H]5N=C1[C@](C)(CCC(=O)NC[C@@H](C)OP(=O)([O-])O[C@H]1[C@@H](O)[C@@H](n6cnc7cc(C)c(C)cc76)O[C@@H]1CO)[C@H]5CC(N)=O)[C@@](C)(CC(N)=O)[C@@H]4CCC(N)=O)[C@@](C)(CC(N)=O)[C@@H]3CCC(N)=O)C(C)(C)[C@@H]2CCC(N)=O.[C-]#N.[Co+3]`, the inhibition is inactive: 6.73%. For the compound `CP(=O)(Nc1ccc(SC(F)(F)F)cc1)Oc1ccccc1` (stereo unspecified), the inhibition is inactive: -0.82%. Regarding `CCCOc1ccc(NP(C)(=O)Oc2ccc(Cl)cc2)cc1` (stereo unspecified), the inhibition is inactive: 2.81%.

In the case of `CN1CCCCC1COC(=O)C1(O)c2ccccc2CCc2ccccc21` (stereo unspecified), the inhibition is inactive: 1.89%. For `COc1ccccc1OP(C)(=O)Nc1c(C)cccc1C` (stereo unspecified) the value was inactive: 3.08%; for `O=C(O)c1cccc(Nc2c([N+](=O)[O-])cc([N+](=O)[O-])cc2[N+](=O)[O-])c1`, inactive: -13.7%.

`CC1=NCCc2c1[nH]c1ccccc21.O=[N+]([O-])c1cc([N+](=O)[O-])c(O)c([N+](=O)[O-])c1`: the inhibition is inactive: -3.02%. `CCOC(=O)c1ccc(NP(C)(=O)Oc2cc(C)cc(C)c2)cc1` (stereo unspecified): the inhibition was inactive: -0.37%. In the case of `Cc1cc(C)cc(OP(C)(=O)Nc2ccc(C)cc2C)c1` (stereo unspecified), the inhibition was inactive: 12.2%. Consider `COc1ccccc1OP(C)(=O)Nc1cccc(Br)c1` (stereo unspecified), for which the inhibition is inactive: 0.58%. As to `Cc1ccc(C)c(NP(C)(=O)Oc2ccccc2)c1` (stereo unspecified), the inhibition was inactive: 0.07%.

`CP(=O)(Nc1cccc(Br)c1)Oc1ccccc1` (stereo unspecified): the inhibition is inactive: -1.9%. For `Cc1cc(C)cc(OP(C)(=O)Nc2ccccn2)c1` (stereo unspecified), the inhibition was inactive: 3.19%.

On to `CP(=O)(Nc1ccccc1F)Oc1ccccc1` (stereo unspecified), for which the inhibition was inactive: -9.09%. Turning to `CC(C)c1ccc(OP(C)(=O)Nc2ccc(SC(F)(F)F)cc2)cc1` (stereo unspecified), the inhibition was inactive: 5.1%. For `COc1ccc2c(c1O)-c1c(O)c(OC)cc3c1[C@H](C2)[N+](C)(C)CC3.O=[N+]([O-])c1cc([N+](=O)[O-])c([O-])c([N+](=O)[O-])c1[O-]` the value was inactive: 1.69%; for `O=C(OC1CN2CCC1CC2)c1ccc([N+](=O)[O-])cc1` (stereo unspecified), inactive: -1.56%; for `O=C(OCCN1CCN(CCOCc2ccccc2)CC1)C(O)(c1ccccc1)c1ccccc1`, inactive: 0.79%. In the case of `CCOC(=O)c1ccc(NP(C)(=O)Oc2ccc(F)cc2)cc1` (stereo unspecified) it was inactive: -4.78%; in that of `COc1ccc(OP(C)(=O)Nc2ccc(SC(F)(F)F)cc2)cc1` (stereo unspecified), inactive: 14.3%. Take `CP(=O)(Nc1ccccc1)Oc1ccc(F)cc1` (stereo unspecified): the inhibition is inactive: 3.75%. For the compound `O=[N+]([O-])c1cc([N+](=O)[O-])c(OC2CCCCC2O)c([N+](=O)[O-])c1` (stereo unspecified), the inhibition is inactive: 7.31%. As to `CCCCCOc1ccc(NP(C)(=O)Oc2ccc(Cl)cc2Cl)cc1` (stereo unspecified), the inhibition is inactive: -0.43%. As to `Cc1c([N+](=O)[O-])cc([N+](=O)[O-])c(Br)c1[N+](=O)[O-]`, the inhibition was inactive: -9.03%.

In the case of `CCN(CC)CCCOC(=O)C(O)(c1ccccc1)C1CCCCC1` (stereo unspecified), the inhibition is inactive: -2.35%. Take `CN(C)CCOC(=O)C(O)(c1ccccc1)C1CCCCC1` (stereo unspecified): the inhibition is inactive: 0.87%. `COc1ccc(NP(C)(=O)Oc2ccccc2OC)cc1` (stereo unspecified): the inhibition is inactive: 8.93%. In the case of `COc1ccc(OP(C)(=O)Nc2cccc(Br)c2)cc1` (stereo unspecified), the inhibition was inactive: 2.39%. With `Cc1c(C(c2ccc3c(c2)OCO3)c2c(C)n(C)n(-c3ccccc3)c2=O)c(=O)n(-c2ccccc2)n1C.O=[N+]([O-])c1cc([N+](=O)[O-])c(O)c([N+](=O)[O-])c1`, the inhibition is inactive: 13.8%.
